Assay results taken from patent US20090304724A1 (IPSEN PHARMA S A S, published 2009).

Amino acid sequences for entries named in this document (tags omitted).
UniProt Q92847, whole entry: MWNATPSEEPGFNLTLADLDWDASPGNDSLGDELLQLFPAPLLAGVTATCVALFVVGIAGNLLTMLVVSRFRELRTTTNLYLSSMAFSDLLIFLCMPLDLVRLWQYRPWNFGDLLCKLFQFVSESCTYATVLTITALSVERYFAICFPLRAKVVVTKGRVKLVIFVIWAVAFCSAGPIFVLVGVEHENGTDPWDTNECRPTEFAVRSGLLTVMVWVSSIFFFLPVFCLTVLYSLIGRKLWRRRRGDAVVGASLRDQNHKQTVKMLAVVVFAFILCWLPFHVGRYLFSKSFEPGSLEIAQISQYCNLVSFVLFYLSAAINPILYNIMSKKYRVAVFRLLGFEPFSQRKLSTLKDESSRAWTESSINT

Target: human growth hormone secretagogue receptor (human) (UniProt Q92847)
Assay: (125I)ghrelin displacement, hGHS-R CHO-K1 membranes

Substance | Ki [nM]
H-Apc-D-1-Nal-D-1-Nal-Phe-Apc-NH2 (peptide) | 1.99
H-Apc-D-1-Nal-D-2-Nal-Phe-Apc-NH2 (peptide) | 1.71
H-Apc-D-1-Nal-D-Trp-2-Thi-Apc-NH2 (peptide) | 0.46
H-Apc-D-1-Nal-D-Trp-2-Thi-Lys-NH2 (peptide) | 0.29
H-Apc-D-1-Nal-D-Trp-2-Thi-NH2 (peptide) | 0.73
H-Apc-D-1-Nal-D-Trp-Phe-Apc-NH2 (peptide) | 0.46
H-Apc-D-1-Nal-D-Trp-Phe-Lys-NH2 (peptide) | 0.42
H-Apc-D-1-Nal-D-Trp-Taz-Apc-NH2 (peptide) | 0.98
H-Apc-D-2-Nal-D-Trp-2-Thi-NH2 (peptide) | 0.95
H-Apc-D-2-Nal-D-Trp-Phe-Lys-NH2 (peptide) | 0.42
H-Apc-D-2-Nal-D-Trp-Taz-NH2 (peptide) | 2.11
H-Apc-D-Bal-D-1-Nal-Phe-Apc-NH2 (peptide) | 3.48
H-Apc-D-Bal-D-2-Nal-Phe-Apc-NH2 (peptide) | 1.49
H-Apc-D-Bal-D-Trp-2-Thi-Lys-NH2 (peptide) | 0.36
H-Apc-D-Bal-D-Trp-2-Thi-NH2 (peptide) | 0.98
H-Apc-D-Bal-D-Trp-Phe-Lys-NH2 (peptide) | 0.32
H-Apc-D-Bal-D-Trp-Taz-Apc-NH2 (peptide) | 1.13
H-Apc-D-Bal-D-Trp-Taz-NH2 (peptide) | 1.62
H-Inp-D-1-Nal-D-Trp-2-Thi-Apc-NH2 (peptide) | 0.53

Substance | Ki [nM]
H-Inp-D-1-Nal-D-Trp-Phe-Apc-NH2 (peptide) | 0.36
H-Inp-D-1-Nal-D-Trp-Taz-Apc-NH2 (peptide) | 1.19
H-Inp-D-1-Nal-D-Trp-Taz-Lys-NH2 (peptide) | 1.11
H-Inp-D-2-Nal-D-Bal-Phe-NH2 (peptide) | 27.4
H-Inp-D-2-Nal-D-Bpa-Phe-Lys-NH2 (peptide) | 419
H-Inp-D-2-Nal-D-Dip-Phe-NH2 (peptide) | 105
H-Inp-D-2-Nal-D-Trp-Pff-Lys-NH2 (peptide) | 25.4
H-Inp-D-2-Nal-D-Trp-Pff-NH2 (peptide) | 36.3
H-Inp-D-2-Nal-D-Trp-Phe-Apc-NH2 (peptide) | 0.64
H-Inp-D-2-Nal-D-Trp-Taz-NH2 (peptide) | 6.17
H-Inp-D-Bal-D-Trp(Ψ)-Pim (peptide) | 48.7
H-Inp-D-Bal-D-Trp-2-Thi-Lys-NH2 (peptide) | 0.42
H-Inp-D-Bal-D-Trp-Phe-NH2 (peptide) | 2.3
H-Inp-D-Bip-D-Trp-Phe-Lys-NH2 (peptide) | 1.35
H-Inp-D-Bpa-D-Trp-Phe-Lys-NH2 (peptide) | 93.8
H-Inp-D-Dip-D-Trp-Phe-Lys-NH2 (peptide) | 46.8
H-Inp-D-Dip-D-Trp-Phe-NH2 (peptide) | 105
H-Inp-D-Trp-D-2-Nal(Ψ)-Pim (peptide) | 182
